In assay [1] the target is Human immunodeficiency virus type 1 reverse transcriptase (Human immunodeficiency virus 1) (UniProt Q72547). In words: Inhibition of HIV-1 reverse transcriptase at 10 uM.
Assay [2] has the same target. The assay can be described thus: Inhibition of HIV-1 reverse transcriptase at 100 uM.

SMILES strings stand for the structures.

As for `CCOCn1c(C(=O)c2ccccc2)c(CC)c(=O)n(O)c1=O`, the inhibition (usually the relative decrease from the control value, in per cent) in assay [1] came to 37%; in assay [2], 61%.

As to `CCc1c(C(=O)c2ccccc2)n(COCc2ccccc2)c(=O)n(O)c1=O`, the inhibition in assay [1] was found to be 61%; in assay [2], 84%.

Take `CCc1c(C(=O)c2ccccc2)n(COCc2ccc(F)cc2)c(=O)n(O)c1=O`: the values for the inhibition in assay [1] and in assay [2] were 41% and 78%, respectively.

Consider `CCc1c(C(=O)c2cc(C)cc(C)c2)n(COCc2ccc(F)cc2)c(=O)n(O)c1=O`, for which the figures for the inhibition in assay [1] and in assay [2] were 68% and 85%, respectively.

(Values after ChEMBL document CHEMBL1759955, “6-Benzoyl-3-hydroxypyrimidine-2,4-diones as dual inhibitors of HIV reverse transcriptase and integrase” (Bioorg Med Chem Lett, 2011).)
